For assay [1], the system named is FaDu. Nature of the assay: cells. The conditions noted are these: Homo sapiens.
The nature of assay [2]: cells. The conditions noted are these: Homo sapiens, OSC19.
Assay [3] in a line: cells. The conditions noted are these: Homo sapiens, CAL-33.
A short description of assay [4]: cells. The conditions noted are these: Homo sapiens.

pIC50: −log10 of the molar value. Where only a bound is given, the exact number is not on record here.

Usually pIC50 stands for the IC50 on a negative log10 scale, so that one unit is a factor of ten. Higher therefore signals a small IC50. With `CC(C)(C)c1nc2c3ccc(F)cc3c3c(=O)[nH]ccc3c2[nH]1`, the pIC50 in assay [1] is 5.62; in assay [2], 5.11; in assay [3], 5.89; in assay [4], less than 5.30.

(Values after ChEMBL document CHEMBL3352017, “2-Guanidinoquinazolines as new inhibitors of the STAT3 pathway” (Bioorg Med Chem Lett, 2014).)
